We go through two molecules from patent US4053635A, “Substituted amides of 3-methyl-4-phenyl-3-butenoic acid, with a high hypolipemizing activity” (Istituto Biochimico Italiano di Loredana Lorenzini S.a.s., priority 1974, dated 1977).

The nature of this data set: in vivo. To be noted: po, per os, rat, read-out: LD 50 per os in the rat.

Turning to `C/C(=C\c1ccccc1)CC(=O)NCCO` [IIIa, Monoethanolamide of 3-methyl-4-phenyl-3-butenoic acid], the LD50 was found to be 1380 mg/kg.

For the molecule `CCN(CC)C(=O)C/C(C)=C/c1ccccc1` [IIId, Diethylamide of 3-methyl-4-phenyl-3-butenoic acid], the LD50 amounted to 2300 mg/kg.
